Assay results: US20260384450A1, “MACROCYCLIC AMINOPYRIDINE COMPOUNDS AS EGFR INHIBITORS” (published 2026)

Sequences of proteins named here, by UniProt entry; tags and fusion partners are left off. A change or cut given only in a name is not applied to a line headed by its entry. A line that says so, or that is headed by a name, gives the form on record, which may keep a tag or linker. Residues count along the entry.
UniProt P00533, 25-1210 limits assumed: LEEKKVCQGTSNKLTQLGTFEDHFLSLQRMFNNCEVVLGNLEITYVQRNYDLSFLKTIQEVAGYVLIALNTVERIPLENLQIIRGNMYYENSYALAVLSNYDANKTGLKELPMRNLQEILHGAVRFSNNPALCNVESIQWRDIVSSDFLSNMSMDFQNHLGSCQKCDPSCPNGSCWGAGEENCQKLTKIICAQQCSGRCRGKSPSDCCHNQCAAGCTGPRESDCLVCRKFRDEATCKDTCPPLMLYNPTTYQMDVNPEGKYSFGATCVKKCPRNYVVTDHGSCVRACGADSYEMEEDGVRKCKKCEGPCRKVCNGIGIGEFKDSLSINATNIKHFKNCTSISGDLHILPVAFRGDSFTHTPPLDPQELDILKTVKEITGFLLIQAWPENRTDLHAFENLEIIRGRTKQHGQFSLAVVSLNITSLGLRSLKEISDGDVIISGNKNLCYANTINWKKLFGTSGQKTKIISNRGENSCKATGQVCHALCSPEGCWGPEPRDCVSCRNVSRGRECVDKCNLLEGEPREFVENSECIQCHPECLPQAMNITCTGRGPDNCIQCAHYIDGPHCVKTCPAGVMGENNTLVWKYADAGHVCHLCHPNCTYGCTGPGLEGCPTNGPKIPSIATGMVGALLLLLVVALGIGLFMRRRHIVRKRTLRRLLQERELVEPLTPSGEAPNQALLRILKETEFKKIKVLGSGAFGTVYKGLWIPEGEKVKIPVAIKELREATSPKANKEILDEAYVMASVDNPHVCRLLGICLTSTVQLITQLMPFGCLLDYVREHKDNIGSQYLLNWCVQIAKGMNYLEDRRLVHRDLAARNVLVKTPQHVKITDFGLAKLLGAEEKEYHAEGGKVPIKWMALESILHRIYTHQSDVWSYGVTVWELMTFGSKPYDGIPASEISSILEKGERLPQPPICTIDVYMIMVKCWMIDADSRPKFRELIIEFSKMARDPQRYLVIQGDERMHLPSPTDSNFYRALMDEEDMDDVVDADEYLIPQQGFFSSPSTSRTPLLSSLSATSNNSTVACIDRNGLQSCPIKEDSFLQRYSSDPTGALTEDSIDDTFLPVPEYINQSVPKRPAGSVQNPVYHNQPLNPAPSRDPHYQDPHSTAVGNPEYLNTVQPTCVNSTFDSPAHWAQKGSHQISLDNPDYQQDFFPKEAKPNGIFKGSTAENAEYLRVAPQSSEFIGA
UniProt P00533, 25-1210 C797S/L858R limits assumed: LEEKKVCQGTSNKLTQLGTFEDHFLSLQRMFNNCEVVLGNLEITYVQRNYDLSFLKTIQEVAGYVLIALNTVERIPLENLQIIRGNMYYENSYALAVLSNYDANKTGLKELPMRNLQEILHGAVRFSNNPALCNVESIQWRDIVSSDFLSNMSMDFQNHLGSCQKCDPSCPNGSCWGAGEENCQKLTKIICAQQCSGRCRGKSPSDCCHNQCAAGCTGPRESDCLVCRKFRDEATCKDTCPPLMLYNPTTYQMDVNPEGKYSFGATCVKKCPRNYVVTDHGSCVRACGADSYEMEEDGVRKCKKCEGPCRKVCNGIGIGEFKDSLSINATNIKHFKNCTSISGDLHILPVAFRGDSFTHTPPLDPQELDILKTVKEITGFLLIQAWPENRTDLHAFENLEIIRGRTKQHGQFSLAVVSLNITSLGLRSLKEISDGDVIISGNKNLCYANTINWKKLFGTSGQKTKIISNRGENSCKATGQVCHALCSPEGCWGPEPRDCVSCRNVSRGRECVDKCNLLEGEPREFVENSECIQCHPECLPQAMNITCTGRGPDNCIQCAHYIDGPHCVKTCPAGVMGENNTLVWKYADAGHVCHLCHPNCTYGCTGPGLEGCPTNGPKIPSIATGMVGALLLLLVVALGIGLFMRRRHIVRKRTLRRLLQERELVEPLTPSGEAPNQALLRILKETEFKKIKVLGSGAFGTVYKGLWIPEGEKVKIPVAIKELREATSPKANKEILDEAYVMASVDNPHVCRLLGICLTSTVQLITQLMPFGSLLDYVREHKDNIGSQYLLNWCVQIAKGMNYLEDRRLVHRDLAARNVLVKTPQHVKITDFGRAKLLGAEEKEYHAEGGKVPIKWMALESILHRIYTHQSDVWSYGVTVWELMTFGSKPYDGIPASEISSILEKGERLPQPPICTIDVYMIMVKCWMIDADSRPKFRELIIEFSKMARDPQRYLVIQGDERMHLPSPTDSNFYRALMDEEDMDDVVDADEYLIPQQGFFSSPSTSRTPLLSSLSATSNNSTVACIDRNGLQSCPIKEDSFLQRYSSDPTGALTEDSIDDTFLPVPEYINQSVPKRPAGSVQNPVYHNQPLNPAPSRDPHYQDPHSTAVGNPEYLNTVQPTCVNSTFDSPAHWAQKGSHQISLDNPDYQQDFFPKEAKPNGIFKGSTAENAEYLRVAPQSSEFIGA
UniProt P00533, 25-1210 T790M/C797S/L858R limits assumed: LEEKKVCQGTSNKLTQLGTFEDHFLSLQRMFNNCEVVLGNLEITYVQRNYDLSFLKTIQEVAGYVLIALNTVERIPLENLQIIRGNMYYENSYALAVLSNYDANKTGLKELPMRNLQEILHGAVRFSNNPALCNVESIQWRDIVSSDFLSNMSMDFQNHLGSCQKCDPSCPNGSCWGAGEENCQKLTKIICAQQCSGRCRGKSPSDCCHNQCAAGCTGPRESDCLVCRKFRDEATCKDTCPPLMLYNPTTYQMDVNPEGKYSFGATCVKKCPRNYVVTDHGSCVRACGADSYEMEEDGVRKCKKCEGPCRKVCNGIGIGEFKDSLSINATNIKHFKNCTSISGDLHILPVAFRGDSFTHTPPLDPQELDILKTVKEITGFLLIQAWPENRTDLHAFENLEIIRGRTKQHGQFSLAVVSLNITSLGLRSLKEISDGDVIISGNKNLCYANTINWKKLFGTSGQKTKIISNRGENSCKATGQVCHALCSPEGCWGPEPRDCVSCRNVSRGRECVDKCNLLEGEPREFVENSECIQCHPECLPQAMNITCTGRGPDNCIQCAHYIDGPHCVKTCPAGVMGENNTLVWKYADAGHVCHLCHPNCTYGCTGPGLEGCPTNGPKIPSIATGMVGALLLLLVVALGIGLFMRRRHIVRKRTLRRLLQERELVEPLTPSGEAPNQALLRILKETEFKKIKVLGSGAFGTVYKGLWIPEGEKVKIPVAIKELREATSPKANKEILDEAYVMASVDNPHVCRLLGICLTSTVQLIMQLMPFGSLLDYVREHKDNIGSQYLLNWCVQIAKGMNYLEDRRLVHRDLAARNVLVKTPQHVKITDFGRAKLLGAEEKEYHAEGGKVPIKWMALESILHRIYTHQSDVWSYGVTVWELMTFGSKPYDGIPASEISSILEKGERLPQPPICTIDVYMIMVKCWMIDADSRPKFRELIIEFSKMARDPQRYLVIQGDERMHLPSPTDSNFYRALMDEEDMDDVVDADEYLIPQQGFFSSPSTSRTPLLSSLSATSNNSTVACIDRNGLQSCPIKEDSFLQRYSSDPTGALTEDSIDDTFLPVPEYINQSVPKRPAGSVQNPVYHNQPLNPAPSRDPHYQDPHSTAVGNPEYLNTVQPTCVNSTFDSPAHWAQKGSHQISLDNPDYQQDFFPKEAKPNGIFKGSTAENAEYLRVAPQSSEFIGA
UniProt P00533, with tags, fused parts or gaps DEL746-750/C797S limits assumed: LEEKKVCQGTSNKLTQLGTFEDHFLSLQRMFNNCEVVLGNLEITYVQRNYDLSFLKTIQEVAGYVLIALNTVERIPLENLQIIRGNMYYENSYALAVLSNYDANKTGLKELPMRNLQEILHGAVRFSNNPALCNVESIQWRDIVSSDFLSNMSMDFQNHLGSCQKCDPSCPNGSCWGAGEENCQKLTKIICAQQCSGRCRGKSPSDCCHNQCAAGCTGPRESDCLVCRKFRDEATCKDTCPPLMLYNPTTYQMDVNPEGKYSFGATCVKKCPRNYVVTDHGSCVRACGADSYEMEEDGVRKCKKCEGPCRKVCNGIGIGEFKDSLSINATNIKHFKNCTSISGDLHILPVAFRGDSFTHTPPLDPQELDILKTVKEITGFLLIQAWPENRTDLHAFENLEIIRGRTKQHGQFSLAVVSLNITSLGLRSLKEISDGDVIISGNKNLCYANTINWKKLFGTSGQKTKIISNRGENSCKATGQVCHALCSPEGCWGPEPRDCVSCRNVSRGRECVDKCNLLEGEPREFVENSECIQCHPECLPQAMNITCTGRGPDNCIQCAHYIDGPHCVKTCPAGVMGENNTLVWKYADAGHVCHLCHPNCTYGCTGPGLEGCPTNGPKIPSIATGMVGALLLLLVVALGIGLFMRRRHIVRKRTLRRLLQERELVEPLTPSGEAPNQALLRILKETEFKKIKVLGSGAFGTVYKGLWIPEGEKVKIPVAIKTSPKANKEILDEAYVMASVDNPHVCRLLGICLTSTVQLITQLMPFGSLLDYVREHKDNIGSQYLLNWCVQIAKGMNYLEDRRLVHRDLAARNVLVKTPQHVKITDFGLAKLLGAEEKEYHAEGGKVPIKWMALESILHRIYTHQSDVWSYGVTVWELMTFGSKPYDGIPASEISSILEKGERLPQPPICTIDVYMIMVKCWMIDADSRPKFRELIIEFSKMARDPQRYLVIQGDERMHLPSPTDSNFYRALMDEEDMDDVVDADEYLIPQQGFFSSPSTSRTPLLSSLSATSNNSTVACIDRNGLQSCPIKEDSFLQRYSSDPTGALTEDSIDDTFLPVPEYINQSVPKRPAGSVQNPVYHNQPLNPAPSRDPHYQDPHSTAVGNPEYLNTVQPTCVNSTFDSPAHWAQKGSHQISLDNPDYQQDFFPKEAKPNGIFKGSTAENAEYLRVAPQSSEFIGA
UniProt P00533, with tags, fused parts or gaps DEL746-750/T790M/C797S limits assumed: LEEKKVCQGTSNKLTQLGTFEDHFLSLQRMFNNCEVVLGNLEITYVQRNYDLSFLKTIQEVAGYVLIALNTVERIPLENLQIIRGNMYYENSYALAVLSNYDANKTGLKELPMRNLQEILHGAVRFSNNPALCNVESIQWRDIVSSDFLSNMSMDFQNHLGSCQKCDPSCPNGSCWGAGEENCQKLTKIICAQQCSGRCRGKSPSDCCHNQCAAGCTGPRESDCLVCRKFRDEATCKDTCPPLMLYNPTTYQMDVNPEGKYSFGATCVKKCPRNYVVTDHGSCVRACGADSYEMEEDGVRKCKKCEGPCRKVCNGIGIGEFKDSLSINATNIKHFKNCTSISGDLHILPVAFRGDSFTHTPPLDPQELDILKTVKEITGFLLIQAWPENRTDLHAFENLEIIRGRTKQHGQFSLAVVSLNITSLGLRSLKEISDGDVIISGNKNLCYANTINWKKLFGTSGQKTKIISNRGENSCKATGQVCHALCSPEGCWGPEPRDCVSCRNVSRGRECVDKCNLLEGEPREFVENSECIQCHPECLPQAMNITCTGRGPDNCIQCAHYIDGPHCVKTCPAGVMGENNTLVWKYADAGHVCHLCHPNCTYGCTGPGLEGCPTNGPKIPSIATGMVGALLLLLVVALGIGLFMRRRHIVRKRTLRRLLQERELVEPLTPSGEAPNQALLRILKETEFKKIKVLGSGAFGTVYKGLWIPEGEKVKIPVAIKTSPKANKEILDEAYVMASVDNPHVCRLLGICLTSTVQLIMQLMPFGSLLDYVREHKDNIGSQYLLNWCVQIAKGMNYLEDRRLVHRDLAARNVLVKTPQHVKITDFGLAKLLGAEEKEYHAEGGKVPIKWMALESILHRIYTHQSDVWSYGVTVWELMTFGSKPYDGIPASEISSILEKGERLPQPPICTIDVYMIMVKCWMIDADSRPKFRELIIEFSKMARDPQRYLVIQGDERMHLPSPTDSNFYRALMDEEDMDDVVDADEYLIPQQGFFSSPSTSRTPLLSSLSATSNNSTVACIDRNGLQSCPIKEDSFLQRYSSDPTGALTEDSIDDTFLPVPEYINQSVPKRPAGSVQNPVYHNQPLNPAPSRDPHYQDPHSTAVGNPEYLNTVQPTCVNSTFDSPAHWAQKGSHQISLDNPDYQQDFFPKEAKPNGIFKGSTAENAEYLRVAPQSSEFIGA

Legend:
[1] = molecular target: EGFR D19TMCS (del19/T790M/C797S) (Homo sapiens, UniProt P00533, C797S/DEL746-750/T790M); assay: Biochemical EGFR kinase assay (Lance Ultra TR-FRET), triple mutant del19/T790M/C797S
Description: (§1) Biochemical EGFR kinase assays were conducted using Lance Ultra time-resolved fluorescence resonance energy transfer (TR-FRET) technology from Perkin-Elmer. Compounds of the invention were initially diluted to 20 mM in 100% DMSO for storage and made into kinase buffer solution to create a compound concentration ranging from 0.003 μM and 10 μM.
(§2) Briefly, each EGFR enzyme wildtype (EGFR WT), double mutant [del19/C797S (EGFR D19CS) and L858R/C797S (EGFR LRCS)], triple mutant [del19/T790M/C797S (EGFR D19TMCS) and L858R/T790M/C797S (EGFR LRTMCS)], serial diluted EGFR inhibitors, substrate of ULight-poly-GT peptide (PerkinElmer; TRF0100-M) and different concentrations of ATP (Km and 100 μM final assay concentration) were mixed in kinase assay buffer (50 mM HEPES pH 7.4, 10 mM MgCl2, 1 mM EGTA, 2 mM DTT and 0.01% Tween-20) and were added to a 384-well plate (Optiplate™ 384, white, PerkinElmer; 6007290).
(§3) Each kinase reactions were incubated at room temperature for 1 hour and then stopped by the addition of 4 μL of stop solution (10 mM EDTA). The specific Europium-labeled-anti-phosphopeptide antibody (PerkinElmer, AD0069) diluted in LANCE detection buffer was then added to a final concentration of 2 nM. After 60 minutes incubation at room temperature the LANCE signal was measured on an EnVision Multilabel Reader (Perkin-Elmer). Excitation wavelength was set at 320 nm and emission monitored at 615 nm (donor) and 665 nm (acceptor). The IC50 values were determined using GraphPad prism software (GraphPad Software, Inc., San Diego, CA, USA).

[2] = molecular target: EGFR LRTMCS (L858R/T790M/C797S) (Homo sapiens, UniProt P00533, C797S/L858R/T790M); assay: Biochemical EGFR kinase assay (Lance Ultra TR-FRET), triple mutant L858R/T790M/C797S
Description: as §1, §2, §3

EGFR D19CS (del19/C797S) = EGFR D19CS (del19/C797S) (Homo sapiens, UniProt P00533, C797S/DEL746-750); assay: Biochemical EGFR kinase assay (Lance Ultra TR-FRET), double mutant del19/C797S
Description: as §1, §2, §3

EGFR LRCS (L858R/C797S) = EGFR LRCS (L858R/C797S) (Homo sapiens, UniProt P00533, C797S/L858R); assay: Biochemical EGFR kinase assay (Lance Ultra TR-FRET), double mutant L858R/C797S
Description: as §1, §2, §3

EGFR WT = EGFR WT (Homo sapiens, UniProt P00533); assay: Biochemical EGFR kinase assay (Lance Ultra TR-FRET), wildtype
Description: as §1, §2, §3

[3] = read-out: EGFR D19TMCS IC50, ATP 1 mM
[4] = read-out: EGFR D19TMCS IC50, ATP Km
[5] = read-out: EGFR LRTMCS IC50, ATP 1 mM
[6] = read-out: EGFR LRTMCS IC50, ATP Km
[7] = read-out: EGFR D19CS IC50, ATP 1 mM
[8] = read-out: EGFR D19CS IC50, ATP Km
[9] = read-out: EGFR LRCS IC50, ATP 1 mM
[10] = read-out: EGFR LRCS IC50, ATP Km
[11] = read-out: EGFR WT IC50, ATP 1 mM
[12] = read-out: IC50, EGFR D19TMCS, Km, ATP at Km, EGFR del19/T790M/C797S
[13] = read-out: IC50, EGFR LRTMCS, 1 mM, ATP 1 mM, EGFR L858R/T790M/C797S
[14] = read-out: IC50, EGFR LRTMCS, Km, ATP at Km, EGFR L858R/T790M/C797S
[15] = read-out: IC50, EGFR-D19CS, 1 mM, ATP 1 mM, EGFR del19/C797S
[16] = read-out: IC50, EGFR-D19CS, Km, ATP at Km, EGFR del19/C797S
[17] = read-out: IC50, EGFR-LRCS, 1 mM, ATP 1 mM, EGFR L858R/C797S
[18] = read-out: IC50, EGFR-LRCS, Km, ATP at Km, EGFR L858R/C797S
[19] = read-out: IC50, EGFR WT, 1 mM, ATP 1 mM, EGFR wildtype
[20] = read-out: IC50, EGFR WT, Km, ATP at Km, EGFR wildtype

| SMILES | IC50 [1, 3] [nM] | IC50 [1, 4] [nM] | IC50 [2, 5] [nM] | IC50 [2, 6] [nM] | IC50 (EGFR D19CS (del19/C797S); [7]) [nM] | IC50 (EGFR D19CS (del19/C797S); [8]) [nM] | IC50 (EGFR LRCS (L858R/C797S); [9]) [nM] | IC50 (EGFR LRCS (L858R/C797S); [10]) [nM] | IC50 (EGFR WT; [11]) [nM] | IC50 (EGFR WT; read-out: EGFR WT IC50, ATP Km) [nM] | IC50 [1, 12] [nM] | IC50 [2, 13] [nM] | IC50 [2, 14] [nM] | IC50 (EGFR D19CS (del19/C797S); [15]) [nM] | IC50 (EGFR D19CS (del19/C797S); [16]) [nM] | IC50 (EGFR LRCS (L858R/C797S); [17]) [nM] | IC50 (EGFR LRCS (L858R/C797S); [18]) [nM] | IC50 (EGFR WT; [19]) [nM] | IC50 (EGFR WT; [20]) [nM] |
| --- | --- | --- | --- | --- | --- | --- | --- | --- | --- | --- | --- | --- | --- | --- | --- | --- | --- | --- | --- |
| Cc1nn(C)c2c1-c1nccc(n1)Nc1cc(c(-c3ccc(OC(F)F)cn3)cn1)NCC(C)(C)CO2 | < 10 | < 10 | < 10 | < 10 | 10 to 100 | < 10 | 100 to 1000 | < 10 | > 1000 | 10 to 100 |  |  |  |  |  |  |  |  |  |
| Cc1nn(C)c2c1-c1nccc(n1)Nc1cc(c(-c3ncc(CN4CCC(C)(O)CC4)cc3F)cn1)NCC[C@H](C)O2 |  |  |  |  |  |  |  |  |  |  | < 10 | < 10 | < 10 | 10 to 100 | < 10 | 10 to 100 | < 10 | > 1000 | 10 to 100 |
| C[C@@H]1CCNc2cc(ncc2-c2cc(C(F)(F)F)n(C)n2)Nc2ccnc(n2)-c2cnn(C)c2O1 | < 10 | < 10 | < 10 | < 10 | < 10 | < 10 | 10 to 100 | < 10 | > 1000 | < 10 |  |  |  |  |  |  |  |  |  |
| C[C@@H]1CCOc2c(cnn2C)-c2nccc(n2)Nc2cc(c(-c3csc(C(F)(F)F)n3)cn2)N1 | > 1000 | 10 to 100 | > 1000 | 10 to 100 | > 1000 | > 1000 | > 1000 | > 1000 | > 1000 | > 1000 |  |  |  |  |  |  |  |  |  |
| Cc1nn(C)c2c1-c1nccc(n1)Nc1cc(c(-c3ncc(CN4CC5(C4)CS(=O)(=O)C5)cc3F)cn1)N[C@@H](C)CCO2 |  |  |  |  |  |  |  |  |  |  | < 10 | < 10 | < 10 | < 10 | < 10 | 10 to 100 | < 10 | > 1000 | < 10 |
| Cc1nn(C)c2c1-c1nccc(n1)Nc1cc(c(-c3ccn(C(F)F)n3)cn1)N[C@@H](C)CCO2 | 10 to 100 | < 10 | 100 to 1000 | < 10 | > 1000 | 10 to 100 | > 1000 | 10 to 100 | > 1000 | > 1000 |  |  |  |  |  |  |  |  |  |
| Cc1nn(C)c2c1-c1nccc(n1)Nc1cc(c(-c3ncc(CN4CC(C(C)(C)O)C4)cc3F)cn1)NCC[C@H](C)O2 |  |  |  |  |  |  |  |  |  |  | < 10 | < 10 | < 10 | < 10 | < 10 | 10 to 100 | < 10 | > 1000 | 10 to 100 |
| C[C@H]1CCOc2c(cnn2C)-c2nccc(n2)Nc2cc(c(-c3ccn(CC(F)(F)F)n3)cn2)N1 | < 10 | < 10 | < 10 | < 10 | 100 to 1000 | 10 to 100 | > 1000 | < 10 | > 1000 | 100 to 1000 |  |  |  |  |  |  |  |  |  |
| C[C@H]1CCOc2c(cnn2C)-c2nccc(n2)Nc2cc(c(-c3ncc(CN4CC(OC(F)F)C4)cc3F)cn2)N1 | < 10 | < 10 | < 10 | < 10 | 10 to 100 | 10 to 100 | 100 to 1000 | < 10 | > 1000 | < 10 |  |  |  |  |  |  |  |  |  |
| Cc1nn(C)c2c1-c1nccc(n1)Nc1cc(c(-c3cnc(CN4CC5(COC5)C4)cn3)cn1)N[C@@H](C)CCO2 |  |  |  |  |  |  |  |  |  |  | < 10 | < 10 | < 10 | < 10 | < 10 | < 10 | < 10 | > 1000 | < 10 |
| Cn1ncc2c1OCC1(CCC1)CNc1cc(ncc1-c1ccn(C(F)F)n1)Nc1ccnc-2n1 | < 10 | < 10 | 10 to 100 | < 10 | 100 to 1000 | 10 to 100 | 100 to 1000 | 10 to 100 | > 1000 | 10 to 100 |  |  |  |  |  |  |  |  |  |
| Cc1nn(C)c2c1-c1nccc(n1)Nc1cc(c(-c3ncc(CN4CCN(C)CC4)cc3F)cn1)NCC[C@@H](C)O2 |  |  |  |  |  |  |  |  |  |  | < 10 | < 10 | < 10 | < 10 | < 10 | < 10 | < 10 | > 1000 | < 10 |
| C[C@H]1CCNc2cc(ncc2-c2cc(OC(F)F)ccn2)Nc2ccnc(n2)-c2cnn(C)c2O1 | < 10 | < 10 | < 10 | < 10 | 10 to 100 | < 10 | 100 to 1000 | < 10 | > 1000 | 10 to 100 |  |  |  |  |  |  |  |  |  |
| Cn1ncc2c1OCC(F)(F)CNc1cc(ncc1-c1ccn(C(F)F)n1)Nc1ccnc-2n1 | 10 to 100 | < 10 | 10 to 100 | < 10 | > 1000 | 100 to 1000 | > 1000 | > 1000 | > 1000 | 100 to 1000 |  |  |  |  |  |  |  |  |  |
| C[C@H]1CCOc2c(cnn2C)-c2nccc(n2)Nc2cc(c(-c3ncc(CN4CC(CC(F)F)C4)cc3F)cn2)N1 | < 10 | < 10 | < 10 | < 10 | < 10 | < 10 | 10 to 100 | < 10 | > 1000 | 10 to 100 |  |  |  |  |  |  |  |  |  |

Read-outs that look alike come from different tables or passages of the source.
